The subject of this data set is chicken embryo chorioallantoic membrane. Description: Irritancy (stimulus) test, chicken embryo chorioallantoic membrane method. From the text:
Perform irritancy test on products prepared in Examples 2-3 and Comparative Examples 2-3, using the chicken embryo chorioallantoic membrane method, as shown in Table 5.
sodium cocoyl taurine [Example 3]: the Bleeding time came out at 39.5, the Coagulation time stood at 301, the Hemolysis time is 301 and the IS value turned out to be 4.36.

The compound “lauroyl-sodium methyl taurate [Comparative Example 3]” displayed a Bleeding time of 8.5, a Coagulation time of 301, a Hemolysis time of 136.2 and an IS value of 8.72.

As for “lauroyl-sodium methyl taurate [Comparative Example 2]”, the Bleeding time came to 9.8, the Coagulation time amounted to 301, the Hemolysis time came out at 116.5 and the IS value worked out at 9.16.

As for `CCCCCCCCCCCC(=O)NCCS(=O)(=O)O.[Na]` [Example 2, sodium lauroyl taurine], the Coagulation time turned out to be 301 and the Hemolysis time amounted to 301.

(Values after US20250026716A1, “SYNTHESIS PROCESS OF FATTY ACYL TAURINE SALT” (ZHANGJIAGANG GREAT CHEMICAL CO., LTD., priority 2021, published 2025).)
